# According to PubChem BioAssay (Tox21):
# Sequences of proteins named here, by UniProt entry; tags and fusion partners are left off.
# UniProt P22303, whole entry: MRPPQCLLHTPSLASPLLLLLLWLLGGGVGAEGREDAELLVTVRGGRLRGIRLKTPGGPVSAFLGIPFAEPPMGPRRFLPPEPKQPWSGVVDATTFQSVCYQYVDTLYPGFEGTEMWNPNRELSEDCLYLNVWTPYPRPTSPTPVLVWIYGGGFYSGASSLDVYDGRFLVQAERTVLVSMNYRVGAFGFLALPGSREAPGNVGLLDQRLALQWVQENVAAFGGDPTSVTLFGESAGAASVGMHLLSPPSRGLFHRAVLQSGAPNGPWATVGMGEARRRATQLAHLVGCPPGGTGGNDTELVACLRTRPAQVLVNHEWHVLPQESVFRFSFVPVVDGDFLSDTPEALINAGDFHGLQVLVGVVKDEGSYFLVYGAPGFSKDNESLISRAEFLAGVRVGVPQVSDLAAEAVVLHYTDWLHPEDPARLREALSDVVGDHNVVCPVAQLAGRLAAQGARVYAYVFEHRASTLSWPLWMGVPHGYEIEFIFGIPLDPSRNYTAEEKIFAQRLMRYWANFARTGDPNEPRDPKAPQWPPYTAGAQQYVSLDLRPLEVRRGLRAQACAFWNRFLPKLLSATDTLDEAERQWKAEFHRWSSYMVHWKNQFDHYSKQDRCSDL
# Several values for one entry are separate records, joined by “and”; a condition that tells them apart may be missing. Identical values can stand only once. Only a part is listed here, and it is no random draw. Activity calls are given as the source filed them. Calls follow the shape of the full dose curve.
# Molecular target: Acetylcholinesterase (Homo sapiens) (UniProt P22303)
# Assay: Acetylcholinesterase (AChE) small molecule antagonists: enzyme-based qHTS assay (AID 1347397); also: nearly all actives have a fitted effect of over 55% in size
# Settings: at 53 µM (top of the series)
# Text: National Center for Advancing Translational Sciences [NCATS]
# Division of Preclinical Innovation [DPI]
# U.S. Environmental Protection Agency [EPA]
# National Institutes of Environmental Health Sciences [NIEHS]
# National Toxicology Program [NTP]
# U.S. Food and Drug Administration [FDA]
# Acetylcholinesterase (AChE) is the primary cholinesterase in the body that hydrolyzes a key neurotransmitter, acetylcholine. Inhibition of AChE activity can lead to neurotoxicity. The known inhibitors include organophosphorous pesticides (OP), chemical warfare agents, drugs, and various phytochemicals.
# An enzyme-based assay with the recombinant human AChE and Amplite Colormetric acetylcholinesterase assay kit (AAT Bioquest, Sunnyvale, CA) was used to evaluate the chemicals in the Tox21 10K library that inhibit AChE activity. The assay uses 5, 5-dithiobis-(2-nitrobenzoic acid) (DTNB) to quantify the thiocholine produced from the hydrolysis of acetylthiocholine by AChE.
# Tox21 Assay Protocol Summary:
# For the enzyme-based AChE assay, recombinant human AChE (50 mU/mL) in 4 uL/well was dispensed into black, clear-bottom 1536-well plates using a Multidrop Combi dispenser (Thermo Scientific, MA). Then, 23 nL of compound or DMSO (vehicle control) was transferred into the assay plates by a Pintool Station (Wako Automation, CA). The plates were incubated for 30 min at room temperature, followed by the addition of 4 uL of colorimetric detection cocktail solution (DTNB, acetylthiocholine) into each well using a Flying Reagent Dispenser (Beckman Coulter, CA) and then 10 min incubation at room temperature.
# % is scaled to controls: 0 for no effect and ±100 for the full control effect.
row,Structure (SMILES),"activity change, negative = inhibition"
1,OCCSCCO,inactive: 0.408%

# Same assay, conditions: at 115 µM (top of the series)
row,Structure (SMILES),"activity change, negative = inhibition"
1,OCCSCCO,inactive: 0.0019%

# Same assay, conditions: at 115 µM (top of the series) unless noted
row,Structure (SMILES),"activity change, negative = inhibition"
1,ClCCOP(OCCCl)OCCCl,inactive: 2.88% and inactive: -1.79%
2,Nc1cc([N+](=O)[O-])cc([N+](=O)[O-])c1O,inactive: 1.1%
3,Cc1cccc([N+](=O)[O-])c1[N+](=O)[O-],inactive: 1.77% [at 53 µM]
4,COP(C)(=O)OC,inactive: 2.46% and inactive: 0.619%
5,COc1ccc([N+](=O)[O-])cc1[N+](=O)[O-],inactive: -16.2%
6,N=C(N)N[N+](=O)[O-],inactive: 0.545%
7,N#CBr,inactive: -0.0019%
8,O=[N+]([O-])c1cccc([N+](=O)[O-])c1,inactive: 1.06%
9,O=[N+]([O-])OCC(CO[N+](=O)[O-])(CO[N+](=O)[O-])CO[N+](=O)[O-],inactive: 1.44%
10,CC(C)N(CCO)C(C)C,inactive: -0.886%
11,CCN(CC)CCCl,inactive: 3.58%
12,O=[N+]([O-])[O-].[NH4+],inactive: 0.417% and inactive: 0.138%
13,Cc1ccc([N+](=O)[O-])cc1[N+](=O)[O-],inactive: -5.14%
14,Cc1c([N+](=O)[O-])cccc1[N+](=O)[O-],inactive: 1.97% and inactive: -1.84%
15,ClCCNCCCl,inactive: 1.89%
16,C/C1=C2N=C(/C=C3N=C(/C(C)=C4\[N-][C@@](C)([C@@H]5N=C1[C@](C)(CCC(=O)NC[C@@H](C)OP(=O)([O-])O[C@H]1[C@@H](O)[C@@H](n6cnc7cc(C)c(C)cc76)O[C@@H]1CO)[C@H]5CC(N)=O)[C@@](C)(CC(N)=O)[C@@H]4CCC(N)=O)[C@@](C)(CC(N)=O)[C@@H]\3CCC(N)=O)C(C)(C)[C@@H]/2CCC(N)=O.[C-]#N.[Co+3],inactive: -1.35% [at 53 µM]
17,Cc1ccc([N+](=O)[O-])c([N+](=O)[O-])c1,inactive: -0.994% and inactive: -4.41%
18,CN(C)CCCl,inactive: 0.954%
19,CCC(=O)N(c1ccccc1)C1CCNCC1,inactive: -1.35% [at 53 µM]
20,CC(C)OP(OC(C)C)OC(C)C,inactive: 0.271%
21,CCOP(=O)(CC)OCC,inactive: -0.136%
22,CP(=O)(O)OCCC[Si](O)(O)O,inactive: 3.04%
23,CCOC(=O)N1CCC(=O)CC1,inactive: 0.47% [at 53 µM]
24,CCOP(=O)(Cl)Cl,inactive: 0% and inactive: 0.0687%
25,[NH4+].[O-][Cl+3]([O-])([O-])[O-],inactive: -0.557% and inactive: -0.835%
